Apparent affinities of Ab-14 variants for a coronavirus HR2 peptide

Antigen: PDVDLGDISGINAS, a 14-residue peptide of the SARS-CoV-2 spike HR2 region.

Ab-14 is the parent antibody, in scFv form: VH, then the linker GGGGSGGGGSGGGGS, then VL. The heavy chain is unchanged in all variants.
VH: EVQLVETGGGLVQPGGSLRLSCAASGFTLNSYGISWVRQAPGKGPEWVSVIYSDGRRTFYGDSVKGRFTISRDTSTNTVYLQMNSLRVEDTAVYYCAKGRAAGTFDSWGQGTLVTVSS
VL: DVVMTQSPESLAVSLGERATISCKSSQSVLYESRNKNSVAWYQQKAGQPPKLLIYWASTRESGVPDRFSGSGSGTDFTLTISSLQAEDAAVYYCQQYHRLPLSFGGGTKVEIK

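Phage display of a naive human antibody library on the peptide gave the parent. The variants were designed computationally from a first round of random CDR variants and then made and measured. Several design methods are mixed in this list. The scFvs were displayed on barcoded MATa yeast, the peptide on MATalpha yeast. The frequency of each diploid, read from paired DNA barcodes, reflects how well the two displayed proteins bind. The ratio of observed to expected reads was calibrated, replicate by replicate, on BCL2-family standards whose Kd was known from biolayer interferometry. There are six technical replicates.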

Variants are written as CDR1, CDR2 and CDR3 of the light chain (limits as in the source). Parent: KSSQSVLYESRNKNSVA, WASTRES, QQYHRLPLS. This list holds designs with more than six substitutions. Values are log10 of the apparent Kd in nM; lower means stronger binding. Replicates are averaged; those with no signal do not enter the mean. A pair that was not seen in any replicate is written "nd"; this usually means weak binding, but a binder can also be missed. Background: pairings of all light chain designs with three empty control strains gave a value in 4% of cases (median 2.64, 5th percentile 1.59). Values in that range, when seen in few replicates, are hard to tell from nonspecific mating. Values of this round are not directly comparable with the first-round values of the same sequences. In the paper, a design with two or fewer of six values counts as a poor binder. Of ten entries with the parent sequence, four were seen in most replicates (averages 0.34 to 2.37), three in one and three in none, so single entries are noisy.

With VFSGQWGLNTTQNSSVA | NVSETML | QQYNRLPLM the result was 2.03 (6 of 6 replicates).
With MISQLMNLGQFAINSVA | QASIRNQ | QQYDRLPLV the result was 2.29 (1 of 6 replicates).
With SVPSEMNQQQTQVNSVA | GEQHTAR | QQYGRLPLS the result was nd (0 of 6 replicates).
With MVYQAAMMGMSTRNSIA | NAQMRPD | QQYHRLPLM the result was 0.31 (6 of 6 replicates).
With KLYDEATNRVGTAENIA | EKEISLQ | QQYHRLPLS the result was 1.29 (6 of 6 replicates).
With TISQSMLYLSNLKNSIA | QAETRES | QQYHRLPIS the result was 0.83 (6 of 6 replicates).
With QLAESAHMESRNKNSVA | DNSTRES | QHYDRLPLS the result was 1.67 (1 of 6 replicates).
With KLSQSVGYESRMVNNVA | NASTREL | QQYHRLPLS the result was 0.15 (6 of 6 replicates).
With KLSQLVGYESRNKSRVA | DNSTRES | QQYDRLPLS the result was 2.33 (5 of 6 replicates).
With KMGIGVLYESRNKGSVA | GASVRES | QQYHRCPLS the result was nd (0 of 6 replicates).
With MVNGIMDHLSKNTNNVA | ETSTRGS | QQYDRLPLS the result was 0.59 (6 of 6 replicates).
With KISGSYLGLSRNWNAVA | NASQREQ | QQYHRLPLS the result was 0.30 (6 of 6 replicates).
With MISDLTMEGSRNKNSVA | DLSTRGS | QQYHRLPLS the result was -0.21 (6 of 6 replicates).
With KLSMITGHMSTIKNNVA | EMETREE | QQYNRLPLA the result was 1.00 (6 of 6 replicates).
With HMSDMLLGQEKIGHSIA | ETVVTSD | QQYGRLPLD the result was 0.49 (6 of 6 replicates).
With TIGQSVHETSKIKNSVA | HASMRED | QQYDRLPLS the result was 0.56 (6 of 6 replicates).
With KVSEFMKGLMMRTDSIA | DNVTRNN | QQYDRLPLS the result was 2.15 (6 of 6 replicates).
With YMSMYLDMQDDIQYGVA | DANVRNA | QQYQRLPLS the result was -0.07 (6 of 6 replicates).
With MVTQMAMTGMGNKRSVA | NAETREY | QQYHRLPLI the result was 0.74 (6 of 6 replicates).
With KISQSVEYQARNQNSVA | SASTRLS | QQYHRLPLS the result was 0.02 (6 of 6 replicates).
With HISDLIMVASRNKNSVA | EESTRND | QQYHRLPLS the result was 0.49 (6 of 6 replicates).
With KLGDMVHTESRNKNSIA | DLRTRES | QQYYRLPLS the result was -0.38 (6 of 6 replicates).
With MISELMNMGQFAINSVA | QASIRNE | QQYDRLPLI the result was 1.02 (6 of 6 replicates).
With MISQLMNMGQFAINSVA | QASIRNM | QQYDRLPLM the result was 1.43 (1 of 6 replicates).
With TISQMMQLFSQTINNVA | EVSTRLN | QQYDRLPLA the result was 1.25 (6 of 6 replicates).
With KLREVQHVETKQKNNVA | DNDTREY | QDYYRLPLS the result was 3.06 (1 of 6 replicates).
With TISQMWVIESKNKNNVA | EMTTREN | QDYDRLPLS the result was 0.13 (6 of 6 replicates).
With KMMQSQLYEERASNAVA | HASQRES | QQYHRLPLS the result was 0.17 (6 of 6 replicates).
With MISQLYNMGQFAINSVA | QASLRCN | QQYDRLPLM the result was 2.56 (3 of 6 replicates).
With MISQVMNTLTRYGNNVA | DLENRED | QQYFRLPLS the result was 2.00 (6 of 6 replicates).
With KLPQKWLYESRNKNNVA | NASCREQ | QQYHRLPLS the result was 0.01 (6 of 6 replicates).
With KLDMFIPSQWEWDASIA | GATLRPT | QDYARLPLS the result was 0.16 (6 of 6 replicates).
With KFSQSDLYEDRAKNSVA | NASTRCW | QQYHRLPLS the result was 0.69 (6 of 6 replicates).
With IVSQLMLWGLHAKNSIA | EAQTRLN | QQYDRLPLF the result was 0.57 (6 of 6 replicates).
With KISMSYRYESQEKNSIA | EMTTREE | QSYHRLPLS the result was 0.26 (6 of 6 replicates).
With KLSQVTHSESRNKNSIA | EMVNREV | QQYDRLPLS the result was 0.89 (6 of 6 replicates).
With KISQVAMTTGKLSNSVA | NAYNRVQ | QQYHRLPLS the result was 0.57 (3 of 6 replicates).
With KLQMQMLYESRMKNSVA | DASLRES | QQYHRLPLS the result was 0.22 (6 of 6 replicates).
With MVSMMPNEPTRDSNAIA | DHSQRNT | QQYDRLPLS the result was 0.90 (6 of 6 replicates).
With TLTDSVLMESHNKNSVA | DLSTRGS | QQYHRLPLS the result was -0.30 (6 of 6 replicates).
With KLWMSVLGESRNKNAVA | SASTREQ | QQYHRLPLS the result was 0.32 (6 of 6 replicates).
With KLSTVTGTEKVKGNNVA | EMETRER | QQYNRLPLA the result was 0.37 (6 of 6 replicates).
With IFSQSVLMGNLTKNSVA | QASERFS | QQYHRLPLI the result was 1.19 (6 of 6 replicates).
With KIGMTLNTLMHKQNNVA | DLVQREN | QQYFRLPLS the result was 0.37 (6 of 6 replicates).
With QVQYHPGESLRHASSIA | DVNIKVM | QQYSRLPLS the result was 0.31 (6 of 6 replicates).
With KISMSYRYESQQKNSIA | EMSRREN | QQYHRLPLS the result was 0.15 (6 of 6 replicates).
With QIALSEEEVGIQKNSIA | ENTVRPA | QQYLRLPLH the result was 1.93 (5 of 6 replicates).
With HISNMQAYGYSATNSVA | DNENKLN | QQYIRLPLT the result was nd (0 of 6 replicates).
With KVQMSWLMQSRMKNQVA | HASMRES | QQYHRLPLS the result was 1.72 (1 of 6 replicates).
With KISQMFNVGTKNTNSLA | EMNTRGF | QDYHRLPLS the result was 0.62 (6 of 6 replicates).

Top 6 of the variants detected in all replicates, tightest first:

| CDR-L1 | CDR-L2 | CDR-L3 | log10 Kd (nM), mean | seen in |
|---|---|---|---|---|
| KLGDMVHTESRNKNSIA | DLRTRES | QQYYRLPLS | -0.38 | 6 of 6 |
| TLTDSVLMESHNKNSVA | DLSTRGS | QQYHRLPLS | -0.30 | 6 of 6 |
| MISDLTMEGSRNKNSVA | DLSTRGS | QQYHRLPLS | -0.21 | 6 of 6 |
| YMSMYLDMQDDIQYGVA | DANVRNA | QQYQRLPLS | -0.07 | 6 of 6 |
| KLPQKWLYESRNKNNVA | NASCREQ | QQYHRLPLS | 0.01 | 6 of 6 |
| KISQSVEYQARNQNSVA | SASTRLS | QQYHRLPLS | 0.02 | 6 of 6 |

Values reported by Li et al. 2023, doi:10.1038/s41467-023-39022-2 (FLAb copy).